Ab-14 heavy chain CDR variants: yeast mating affinities

The measurements come from Li et al. 2023 (doi:10.1038/s41467-023-39022-2) through the FLAb antibody collection.

Binding partner: SARS-CoV-2 spike HR2 peptide, sequence PDVDLGDISGINAS.

Ab-14 is the parent antibody, in scFv form: VH, then a 15-residue (Gly4Ser)3 linker, then VL. The light chain is unchanged in all variants.
VH: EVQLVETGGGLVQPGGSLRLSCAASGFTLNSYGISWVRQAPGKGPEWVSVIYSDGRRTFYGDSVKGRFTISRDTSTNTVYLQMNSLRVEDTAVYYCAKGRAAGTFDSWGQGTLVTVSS
VL: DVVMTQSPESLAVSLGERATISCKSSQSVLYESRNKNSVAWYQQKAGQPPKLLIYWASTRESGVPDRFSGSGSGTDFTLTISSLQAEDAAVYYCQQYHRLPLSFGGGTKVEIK

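The starting antibody came from a phage panning campaign against this peptide. This is the validation round: designs drawn from the data on random variants, tested in the same kind of assay. Group labels follow the data file (Ctrl: baseline library sampled from a position-specific scoring matrix, with some repeated check sequences; Rand: our label for a block that the file lists under HC and that is probably the random mutants of the ten best first-round binders; En: ensemble of fine-tuned language models; GP: Gaussian process model; GPLM: also part of the Gaussian process libraries; HC: hill climbing; Gen: genetic algorithm; Gibbs: Gibbs sampling; a sequence that several methods proposed may carry one label only). In AlphaSeq, yeast of one mating type display the scFv and yeast of the other type display the target. Binding brings cells together so that they mate, and sequencing counts the barcode pairs among the diploids. A regression on co-assayed BCL2-family reference pairs converts the normalised counts of each replicate to an apparent Kd. The assay was run in six technical replicates.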

Positions count from residue 1 of the parent VH; G61L puts L in place of G. This list holds designs with at most six substitutions. Each Kd is an estimate from the mating assay, the geometric mean of the replicates in which the pair was seen; lower is stronger. "no signal" means that the variant was in the library but no mating with the target was seen in any replicate; the authors take this as a sign of poor binding, and no number exists.

changes	group	Kd (apparent)	detected	control signals
G61L R100G S107Y	Ctrl	100 nM	1 of 6	0 of 18
S31E G103V S107H	GP_HC	no signal	0 of 6	0 of 18
S31E R56Q G61Q	Ctrl	4.3 nM	6 of 6	0 of 18
R56K A102S	Ctrl	no signal	0 of 6	0 of 18
G61D R100W A101L	GPLM_HC	no signal	0 of 6	0 of 18
F27T T28N D106K	Ctrl	no signal	0 of 6	0 of 18
G26Q T28E S53A R100K	GP_Gen	10 nM	3 of 6	0 of 18
T28V S31D F59Q G61I	GP_HC	no signal	0 of 6	0 of 18
T58E F59W D106K	Ctrl	no signal	0 of 6	1 of 18
T28Q S53A R100T	Ctrl	630 pM	6 of 6	1 of 18
T28E R100F A101V	Ctrl	3.0 nM	6 of 6	0 of 18
F27N F59A G99W D106H	Ctrl	650 nM	2 of 6	0 of 18
F27E T58K	Ctrl	24 nM	2 of 6	1 of 18
T28S S63K R100Q S107K	GP_Gibbs	150 nM	2 of 6	0 of 18
S31K S53A F105D	Ctrl	no signal	0 of 6	0 of 18
S31M R56K F59E T104C D106C S107Q	Ctrl	no signal	0 of 6	0 of 18
T28S G61A R100Q A101V	GPLM_Gen	900 pM	6 of 6	0 of 18
F27E F59A G61H	Ctrl	11 nM	6 of 6	2 of 18
T28S G61A A101H	GPLM_Gen	25 nM	6 of 6	0 of 18
N30D S31Q G61S A101T	GPLM_HC	540 pM	6 of 6	0 of 18
T28D G61Q A101Q	GP_Gen	1.1 nM	6 of 6	0 of 18
S31E S63H A101T D106M	GP_Gibbs	27 nM	6 of 6	1 of 18
T28Q G61S S63Q A101Q	GP_Gibbs	13 nM	3 of 6	0 of 18
F59G G61L G99A S107Q	Ctrl	160 nM	1 of 6	0 of 18
T28S S31D G61I R100N	GPLM_Gibbs	280 pM	6 of 6	0 of 18
T28W S31E R100Q S107R	GP_Gen	160 nM	1 of 6	0 of 18
T28E S53A S107T	GPLM_Gen	720 pM	6 of 6	0 of 18
T28N	Ctrl+GPLM_Gen	10 nM	11 of 12	0 of 36
G61S R100H S107T	Ctrl+GPLM_Gen	7.7 nM	12 of 12	0 of 36
S31E R56Y G103V S107K	GPLM_HC	no signal	0 of 6	0 of 18
F27R L29Q G61S A102G	Rand	no signal	0 of 6	0 of 18
F59Y G61S A102G	Rand	350 nM	2 of 6	0 of 18
F59A Y60A T104L	Ctrl	no signal	0 of 6	0 of 18
F59H A101L	Ctrl	150 nM	1 of 6	0 of 18
S31E S53A D106K S107L	GP_HC	140 nM	3 of 6	0 of 18
S31E R100P S107L	GP_HC	no signal	0 of 6	0 of 18
T28Q A101E S107T	GPLM_Gen	2.5 nM	6 of 6	1 of 18
S53A T58A A101L F105N D106K	Rand	no signal	0 of 6	0 of 18
T28E S53A R100N S107T	GP_Gen	160 pM	6 of 6	0 of 18
T28W S31E R100Q S107V	GP_Gen	43 nM	6 of 6	0 of 18
G26K S31N S53A F105S	Ctrl	no signal	0 of 6	1 of 18
T28D S31E S53A G61S R100V A101N	En_HC	3.2 nM	5 of 6	0 of 18
G26K T28Q S31E G61Q	GP_Gibbs	91 nM	1 of 6	0 of 18
F27V L29I S53E T58Q R100Q A102T	Ctrl	1.1 µM	1 of 6	1 of 18
R56L G61D A101V	GP_Gibbs	11 nM	6 of 6	0 of 18
N30D S31N G61S	GPLM_HC	4.7 nM	5 of 6	0 of 18
T28G I51D F59E R100S A102K	Ctrl	no signal	0 of 6	0 of 18
T28D S63A V64F A101T	GP_Gibbs	2.2 nM	6 of 6	0 of 18
G26D A102K	Ctrl	no signal	0 of 6	0 of 18
T28D S31W A101T	GP_Gen	4.5 nM	6 of 6	0 of 18
T28N G61Q R100K	GP_Gen	12 nM	6 of 6	0 of 18
R56C F59A A101I	Ctrl	36 nM	5 of 6	1 of 18
G26Q L29P R100Y A102G	Ctrl	no signal	0 of 6	0 of 18
T28R S31E A101T	GPLM_Gen	1.0 nM	6 of 6	0 of 18
T28D R100E S107Q	GPLM_Gen	30 nM	4 of 6	0 of 18
T28W S31E G61H G103V S107K	GP_HC	no signal	0 of 6	0 of 18
G26S T28D A101T	GPLM_Gibbs	100 nM	2 of 6	0 of 18
T28S S53A G61A R100Q	GPLM_Gen	250 pM	6 of 6	2 of 18
A101E T104H	Ctrl	890 nM	4 of 6	1 of 18

The last 9 entries again:

changes,group,Kd (apparent),detected,control signals
T28N G61Q R100K,GP_Gen,12 nM,6 of 6,0 of 18
R56C F59A A101I,Ctrl,36 nM,5 of 6,1 of 18
G26Q L29P R100Y A102G,Ctrl,no signal,0 of 6,0 of 18
T28R S31E A101T,GPLM_Gen,1.0 nM,6 of 6,0 of 18
T28D R100E S107Q,GPLM_Gen,30 nM,4 of 6,0 of 18
T28W S31E G61H G103V S107K,GP_HC,no signal,0 of 6,0 of 18
G26S T28D A101T,GPLM_Gibbs,100 nM,2 of 6,0 of 18
T28S S53A G61A R100Q,GPLM_Gen,250 pM,6 of 6,2 of 18
A101E T104H,Ctrl,890 nM,4 of 6,1 of 18

In the paper, a design with two or fewer of six values counts as a poor binder. Some sequences occur more than once in the pool; their replicates are pooled. A sequence measured in both rounds can read differently, since the two assays cover different ranges. Background: pairings of all heavy chain designs with three empty control strains gave a value in 1% of cases (median 120 nM, 5th percentile 7.0 nM). Values in that range, when seen in few replicates, are hard to tell from nonspecific mating. Also given: how often the same scFv was detected with the empty control strains.